Measurements as given in patent US20020016341A1, “Heterocyclic thioester and ketone hair growth compositions and uses” (priority 1998, published 2002).

Sequences of proteins named here, by UniProt entry; tags and fusion partners are left off.
UniProt P62942, whole entry, species assumed: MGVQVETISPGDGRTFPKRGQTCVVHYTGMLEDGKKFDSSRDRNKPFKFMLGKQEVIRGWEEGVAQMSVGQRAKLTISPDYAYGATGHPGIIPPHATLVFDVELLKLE

Target: FKBP12 (Homo sapiens, UniProt P62942)
Experiment: Ki test: inhibition of peptidyl-prolyl isomerase (rotamase) activity, chymotrypsin-coupled assay
Format: biochemical
Details: apparent Ki
From the text: The inhibition of the prolyl peptidyl cis-trans isomerase activity of FKBP may be measured as an indicator of this affinity.
Inhibition of the peptidyl-prolyl isomerase (rotamase) activity of the compounds used in the inventive methods and pharmaceutical compositions can be evaluated by known methods described in the literature (Harding et al., Nature, 1989, 341:758-760; Holt et al. J. Am. Chem. Soc., 115:9923-9938).
The cis-trans isomerization of an alanine-proline bond in a model substrate, N-succinyl-Ala-Ala-Pro-Phe-p-nitroanilide, is monitored spectrophotometrically in a chymotrypsin-coupled assay, which releases paranitroanilide from the trans form of the substrate. The inhibition of this reaction caused by the addition of different concentrations of inhibitor is determined, and the data is analyzed as a change in first-order rate constant as a function of inhibitor concentration to yield the apparent K1 values.
In a plastic cuvette are added […] of ice cold assay buffer (25 mM HEPES, pH 7.8, 100 mM NaCl), 10 mL of FKBP (2.5 mM in 10 mM Tris-Cl pH 7.5, 100 mM NaCl, 1 mM dithiothreitol), 25 mL of chymotrypsin (50 mg/ml in 1 mM HCl) and […] of test compound at various concentrations in dimethyl sulfoxide. […]
The absorbance at 390 nm versus time is monitored for 90 seconds using a spectrophotometer and the rate constants are determined from the absorbance versus time data files.

## 3-Phenyl-1-propyl (2S)-1-(3,3-dimethyl-1,2-dioxopentyl)-2-pyrrolidinecarbothioate [Compound 30]
  Ki: 0.011 µM
